Data from PMC3184503, “Isolation, Purification, and Characterization of Fungal Laccase from Pleurotus sp” (2011).

Tested on: laccase
Test: inhibition of purified laccase activity, Ki

For `[N-]=[N+]=N`, the Ki was 30 µM.
